The results in this text go back to ChEMBL document CHEMBL5046267, “Discovery of N-Trisubstituted Pyrimidine Derivatives as Type I RET and RET Gatekeeper Mutant Inhibitors with a Novel Kinase Binding Pose” (J Med Chem, 2022).

For the assay, the system named is LC-2-ad. Description: cells. To be noted: Homo sapiens, 72 h.

For the compound `CCN1CCN(c2cc(Nc3cc(C)n[nH]3)nc(Nc3ccc(CC(=O)Nc4ccc(C(C)C)cc4)cc3)n2)CC1`, growth was halved (GI50) at 1170 nM. For the compound `CN1CCN(c2cc(Nc3cc(C(C)(C)C)n[nH]3)nc(Nc3ccc(CC(=O)NCc4cccc(F)c4)cc3)n2)CC1`, the GI50 – broadly, the concentration at which growth is held to half of that of the control – was determined as 3240 nM. In turn, `Cc1cc(Nc2cc(N3CCOCC3)nc(Nc3ccc(CC(=O)Nc4ccc(C(C)C)cc4)cc3)n2)[nH]n1` yielded a GI50 of 1440 nM.

`Cc1cc(Nc2cc(N3CCOCC3)nc(Nc3ccc(CC(=O)Nc4ccc(C(C)(C)C)cc4)cc3)n2)[nH]n1` showed a GI50 of 1400 nM. As for `CN1CCN(c2cc(Nc3cc(C4CC4)n[nH]3)nc(Nc3ccc(CC(=O)NCc4cccc(F)c4)cc3)n2)CC1`, the concentration for 50% growth inhibition (GI50) was 113 nM. `CCN1CCN(c2cc(Nc3cc(C)n[nH]3)nc(Nc3ccc(CC(=O)NCc4ccc(OC)cc4)cc3)n2)CC1` had a 50% growth inhibitory concentration (GI50) of 176 nM. As for `CNC(=O)c1cc(Oc2ccc(NC(=O)Nc3ccc(Cl)c(C(F)(F)F)c3)cc2)ccn1` [SORAFENIB], growth was halved (GI50) at 3220 nM.
